Antibody variant affinities, Ab-14 heavy chain, assay B

Reference: Li et al. 2023, doi:10.1038/s41467-023-39022-2. File: FLAb, binding data.

Binding partner: SARS-CoV-2 spike HR2 peptide, sequence PDVDLGDISGINAS.

Each scFv is VH, a (GGGGS)3 linker, VL, as in the parent Ab-14, and differs from it in the CDRs of the heavy chain only.
VH: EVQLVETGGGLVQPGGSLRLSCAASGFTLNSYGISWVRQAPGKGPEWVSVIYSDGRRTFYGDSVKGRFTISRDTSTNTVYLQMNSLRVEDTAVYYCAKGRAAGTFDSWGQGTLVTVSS
VL: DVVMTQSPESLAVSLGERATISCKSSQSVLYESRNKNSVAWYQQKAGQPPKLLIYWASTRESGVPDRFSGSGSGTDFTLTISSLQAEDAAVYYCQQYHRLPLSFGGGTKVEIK

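Designed CDR sequences, proposed from the first random library and measured here. Several design methods are mixed in this list. The scFvs were displayed on barcoded MATa yeast, the peptide on MATalpha yeast. After mating in shaken culture at 30 °C for 16 h, diploids were selected and their barcode pairs sequenced. Read counts were normalised to the haploid input and turned into Kd by a linear fit to BCL2-family pairs of known affinity, for each replicate. There are six technical replicates.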

Each variant is given by its three heavy chain CDRs, as the data file delimits them; those of the parent are GFTLNSYGIS, VIYSDGRRTFYGDSVK, GRAAGTFDS. Variants here have at most six changes. Each Kd is an estimate from the mating assay, the geometric mean of the replicates in which the pair was seen; lower is stronger. A pair that was not seen in any replicate is written "nd"; this usually means weak binding, but a binder can also be missed. Of ten entries with the parent sequence, four were seen in most replicates (averages 2.2 nM to 240 nM), three in one and three in none, so single entries are noisy.

The variant GFGLNSYGIS | VIYSDGRRTFYSDSVK | GRTAGTFDS gave 2.4 nM (6 of 6 replicates).
The variant GFDLNEYGIS | VIYSDGRRTFYGDSVK | GQTAGTFDS gave 400 pM (5 of 6 replicates).
The variant GFTLNEYGIS | VIYSDGRRTFYGDSVK | GRSAGTFMT gave nd (0 of 6 replicates).
The variant GFTLNQYGIS | VIYSDGRRTAYQDSVK | GRAAGTFDS gave 920 pM (6 of 6 replicates).
The variant GFSLNEYGIS | VIYSDGRRTFYGDSVK | GFAAGTFDL gave 6.9 nM (6 of 6 replicates).
The variant GEQLNSYGIS | VIYSDGRRTFYGDSVK | GRAAGTFDS gave 300 nM (1 of 6 replicates).
The variant GFTLNDYGIS | VIYMDGRRTQYIDSVK | GRAAGTFDS gave 63 nM (1 of 6 replicates).
The variant GFTLNDYGIS | VIYSDGRRTMYGDSVK | GRAAGTFWS gave nd (0 of 6 replicates).
The variant GFTLNEYGIS | VIYSDGRRTFYSDAVK | GRTAGTFDS gave 1.8 nM (6 of 6 replicates).
The variant GFTLNSYGIS | VIYSDGIRTFYGDSVK | GAAAGTFDS gave 19 nM (6 of 6 replicates).
The variant GFQLNEYGIS | VIYSDGRRTFYGDAVK | GRAAGTFDS gave 1.3 nM (6 of 6 replicates).
The variant GFNLNSYGIS | VIYSDGIRTFYGDSVK | GRTAGTFDS gave 3.9 nM (6 of 6 replicates).
The variant GFTLNSYGIS | VIYSDGRRTFYGDSVK | GRAAGCAWT gave nd (0 of 6 replicates).
The variant GFTLNDYGIS | VIYSDGRRTFYHDSVK | GRAAGTFTS gave 260 nM (1 of 6 replicates).
The variant GFTLNSYGIS | VIYSDGERTFYADSVK | GRAAGTFDS gave 7.4 nM (6 of 6 replicates).
The variant GFSLNSYGIS | VIYSDGRRTFYADSVK | GKTAGTFDS gave 3.3 nM (6 of 6 replicates).
The variant GFTLNSYGIS | VIYSDGQRTFYGDSVK | GAAAGTFDS gave 120 nM (6 of 6 replicates).
The variant GFTLNSYGIS | VIYSDGRRTFYGDNVK | GTAAGTFDS gave 2.6 nM (6 of 6 replicates).
The variant GFTLNSYGIS | VIYSDGQRTFYGDSVK | GRAYGTFDW gave 230 nM (5 of 6 replicates).
The variant GFELNEYGIS | VIYSDGRRTFYGDSVK | GRAAETFDQ gave 1.4 nM (5 of 6 replicates).
The variant GFNLNSYGIS | VIYSDGMRTFYVDSVK | GRQAGTFDS gave 31 nM (6 of 6 replicates).
The variant GFTLMSYGIS | VIYSDGRNTFVDDSVK | GQLAGTFDS gave nd (0 of 6 replicates).
The variant GFTLNDYGIS | VIYSDGRRTFYGDSVK | GRVAGTFDQ gave 2.3 nM (6 of 6 replicates).
The variant GFTLNSYGIS | VIYSDGRRTFYVDSVK | GLLAGTFDS gave 11 nM (5 of 6 replicates).
The variant GFDLNSYGIS | VIYSDGRRTFYGDSVK | GRAAWTFDA gave 4.0 nM (1 of 6 replicates).
The variant GFNLNEYGIS | VIYADGRRTFYSDSVK | GEAAGTFDV gave 630 pM (6 of 6 replicates).
The variant GTTLNSYGIS | VIYSDGRRTFYGDSVK | GRAAGTFDL gave nd (0 of 6 replicates).
The variant GFYLNDYGIS | VIYSDGRRTFYGDSVK | GRMAGTFIS gave nd (0 of 6 replicates).
The variant GFDLNSYGIS | VIYSDGRRTFYSDSVK | GMAGGTFDS gave 48 nM (6 of 6 replicates).
The variant GFTLEDYGIS | VIYADGRRTFYGDSVK | GRAAGTGDS gave nd (0 of 6 replicates).
The variant GGTLNSYGIS | VIYNDGRRTFWGDSVK | GRAAGTNKS gave nd (0 of 6 replicates).
The variant GFDLNSYGIS | VIYSDGRRTMYGDSVK | GRNAGTFDS gave 2.5 nM (6 of 6 replicates).

A selection of 3 entries from above:

CDR-H1	CDR-H2	CDR-H3	apparent Kd	seen in
GEQLNSYGIS	VIYSDGRRTFYGDSVK	GRAAGTFDS	300 nM	1 of 6
GFTLNEYGIS	VIYSDGRRTFYGDSVK	GRSAGTFMT	nd	0 of 6
GFTLNDYGIS	VIYSDGRRTFYGDSVK	GRVAGTFDQ	2.3 nM	6 of 6

The authors' rule: three or more of the six replicates give a measured affinity, fewer mean a poor binder. A sequence measured in both rounds can read differently, since the two assays cover different ranges. Background: pairings of all heavy chain designs with three empty control strains gave a value in 1% of cases (median 120 nM, 5th percentile 7.0 nM). Values in that range, when seen in few replicates, are hard to tell from nonspecific mating.